The text below walks through data of patent US20260167693A1 (ANGELES THERAPEUTICS, published 2026).

Substitutions are numbered along the chain they refer to. In names and notes the source's numbering stands.

T1: CD19-ECD-GGSG-NLuc-AcV5 (human)
T1 construct: also called CD19-GGSG-NLuc-AcV5; Flag-CD19-GGSG-NLuc-AcV5
T1 chain: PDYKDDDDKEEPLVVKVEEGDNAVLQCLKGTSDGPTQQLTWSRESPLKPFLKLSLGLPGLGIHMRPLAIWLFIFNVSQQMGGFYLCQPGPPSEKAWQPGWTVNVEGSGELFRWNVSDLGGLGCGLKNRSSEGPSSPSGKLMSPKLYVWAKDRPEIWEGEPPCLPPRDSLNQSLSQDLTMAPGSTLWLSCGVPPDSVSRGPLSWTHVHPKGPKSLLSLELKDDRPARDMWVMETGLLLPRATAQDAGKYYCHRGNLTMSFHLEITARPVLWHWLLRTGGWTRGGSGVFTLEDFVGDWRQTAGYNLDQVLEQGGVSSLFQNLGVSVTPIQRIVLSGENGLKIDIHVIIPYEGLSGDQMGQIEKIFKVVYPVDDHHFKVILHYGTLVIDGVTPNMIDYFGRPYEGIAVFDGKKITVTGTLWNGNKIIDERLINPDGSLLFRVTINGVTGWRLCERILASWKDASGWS

B1: CD8SP-V5-[hTCRb-KACIAH]-F-P2A-CD8SP-2-CD19MM-vL-Gly-Ser-Linker-CD19MM-vH-Myc-[hTCRa-CSDVP]-F-F2A-PAC (other)
TCR beta: GKPIPNPLLGLDSTGSGEDLKNVFPPEVAVFEPSKAEIAHTQKATLVCLATGFYPDHVELSWWVNGKEVHSGVCTDPQPLKEQPALNDSRYCLSSRLRVSATFWQNPRNHFRCQVQFYGLSENDEWTQDRAKPVTQIVSAEAWGRADCGITSASYHQGVLSATILYEILLGKATLYAVLVSALVLMAMVKRKDSRG
TCR alpha: DIQLTQSPASLAVSLGQRATISCKASQSVDYDGDSYLNWYQQIPGQPPKLLIYDASNLVSGIPPRFSGSGSGTDFTLNIHPVEKVDAATYHCQQSTEDPWTFGGGTKLEIKGGGGSGGGGSGGGGSQVQLQQSGAELVRPGSSVKISCKASGYAFSSYWMNWVKQRPGQGLEWIGQIWPGDGDTNYNGKFKGKATLTADESSSTAYMQLSSLASEDSAVYFCARRETTTVGRYYYAMDYWGQGTTVTVSSEQKLISEEDGSGIQNPDPAVYQLRDSKSSDKSVCLFTDFDSQTNVSQSKDSDVYITDKCVLDMRSMDFKSNSAVAWSNKSDFACANAFNNSIIPEDTFFPSSDVPCDVKLVEKSFETDTNLNFQNLSVIGFRILLLKVAGFNLLMTLRLWSS
notes: Polyprotein PRT 3858; also called 082815-F06
B2: CD8SP-FMC63-vL-V5-[hTCRg-opt]-F-P2A-SP-FMC63-vH-Myc-[hTCRd-opt]-F-F2A-PAC (091015-A06)[SEQ ID NO:949] (other)
chain 1: DIQMTQTTSSLSASLGDRVTISCRASQDISKYLNWYQQKPDGTVKLLIYHTSRLHSGVPSRFSGSGSGTDYSLTISNLEQEDIATYFCQQGNTLPYTFGGGTKLEITGKPIPNPLLGLDSTGSGDKQLDADVSPKPTIFLPSIAETKLQKAGTYLCLLEKFFPDVIKIHWQEKKSNTILGSQEGNTMKTNDTYMKFSWLTVPEKSLDKEHRCIVRHENNKNGVDQEIIFPPIKTDVITMDPKDNCSKDANDTLLLQLTNTSAYYMYLLLLLKSVVYFAIITCCLLRRTAFCCNGEKS
chain 2: EVKLQESGPGLVAPSQSLSVTCTVSGVSLPDYGVSWIRQPPRKGLEWLGVIWGSETTYYNSALKSRLTIIKDNSKSQVFLKMNSLQTDDTAIYYCAKHYYYGGSYAMDYWGQGTSVTVSSEQKLISEEDGSGSQPHTKPSVFVMKNGTNVACLVKEFYPKDIRINLVSSKKITEFDPAIVISPSGKYNAVKLGKYEDSNSVTCSVQHDNKTVHSTDFEVKTDSTDHVKPKETENTKQPSKSCHKPKAIVHTEKVNMMSLTVLGLRMLFAKTVAVNFLLTAKLFFL
notes: TCR gamma and delta constant chains; Polyprotein PRT 3184
B3: CD8SP-FMC63-vL-V5-[hTCRb-WT]-F-P2A-SP-FMC63-vH-Myc-[preTCRa-Del48]-F-F2A-PAC (091015-Y08)[SEQ ID NO:926] (other)
TCR beta: DIQMTQTTSSLSASLGDRVTISCRASQDISKYLNWYQQKPDGTVKLLIYHTSRLHSGVPSRFSGSGSGTDYSLTISNLEQEDIATYFCQQGNTLPYTFGGGTKLEITGKPIPNPLLGLDSTGSGEDLKNVFPPEVAVFEPSEAEISHTQKATLVCLATGFYPDHVELSWWVNGKEVHSGVSTDPQPLKEQPALNDSRYCLSSRLRVSATFWQNPRNHFRCQVQFYGLSENDEWTQDRAKPVTQIVSAEAWGRADCGFTSESYQQGVLSATILYEILLGKATLYAVLVSALVLMAMVKRKDSRG
chain: EVKLQESGPGLVAPSQSLSVTCTVSGVSLPDYGVSWIRQPPRKGLEWLGVIWGSETTYYNSALKSRLTIIKDNSKSQVFLKMNSLQTDDTAIYYCAKHYYYGGSYAMDYWGQGTSVTVSSEQKLISEEDGSGTPFPSLAPPIMLLVDGKQQMVVVCLVLDVAPPGLDSPIWFSAGNGSALDAFTYGPSPATDGTWTNLAHLSLPSEELASWEPLVCHTGPGAEGHSRSTQPMHLSGEASTARTCPQEPLRGTPGGALWLGVLRLLLFKLLLFDLLLTCSCLCDPAGPLPSPATTTRLRALGSHRLHPATETGGREATSSPRPQPRDRRWGDTPPGRKPGSPV
notes: Polyprotein PRT 3161
B4: CD8SP-CD19MM-vL-V5-[TCRb-S57C-opt1]-F-P2A-SP-CD19MM-vH-Myc-[TCRa-T48C-opt1]-F-F2A-PAC (other)
TCR beta: DIQLTQSPASLAVSLGQRATISCKASQSVDYDGDSYLNWYQQIPGQPPKLLIYDASNLVSGIPPRFSGSGSGTDFTLNIHPVEKVDAATYHCQQSTEDPWTFGGGTKLEIKGKPIPNPLLGLDSTGSGEDLKNVFPPEVAVFEPSEAEISHTQKATLVCLATGFYPDHVELSWWVNGKEVHSGVCTDPQPLKEQPALNDSRYCLSSRLRVSATFWQNPRNHFRCQVQFYGLSENDEWTQDRAKPVTQIVSAEAWGRADCGFTSESYQQGVLSATILYEILLGKATLYAVLVSALVLMAMVKRKDSRG
TCR alpha: QVQLQQSGAELVRPGSSVKISCKASGYAFSSYWMNWVKQRPGQGLEWIGQIWPGDGDTNYNGKFKGKATLTADESSSTAYMQLSSLASEDSAVYFCARRETTTVGRYYYAMDYWGQGTTVTVSSEQKLISEEDGSGPDPAVYQLRDSKSSDKSVCLFTDFDSQTNVSQSKDSDVYITDKCVLDMRSMDFKSNSAVAWSNKSDFACANAFNNSIIPEDTFFPSPESSCDVKLVEKSFETDTNLNFQNLSVIGFRILLLKVAGFNLLMTLRLWSS
notes: Polyprotein PRT 3345; also called 071715-C06
B5: CD8SP-FMC63-vL-V5-[mTCRb-opt]-F-P2A-SP-FMC63-vH-Myc-[mTCRa-opt]-F-F2A-PAC (080815-B06)[SEQ ID NO:953] (other)
TCR beta: DIQMTQTTSSLSASLGDRVTISCRASQDISKYLNWYQQKPDGTVKLLIYHTSRLHSGVPSRFSGSGSGTDYSLTISNLEQEDIATYFCQQGNTLPYTFGGGTKLEITGKPIPNPLLGLDSTGSGEDLRNVTPPKVSLFEPSKAEIANKQKATLVCLARGFFPDHVELSWWVNGKEVHSGVSTDPQAYKESNYSYCLSSRLRVSATFWHNPRNHFRCQVQFHGLSEEDKWPEGSPKPVTQNISAEAWGRACGITSSYQQGVLSATILYEILLGKATLYAVLVSTLVVMAMVKRKNS
TCR alpha: EVKLQESGPGLVAPSQSLSVTCTVSGVSLPDYGVSWIRQPPRKGLEWLGVIWGSETTYYNSALKSRLTIIKDNSKSQVFLKMNSLQTDDTAIYYCAKHYYYGGSYAMDYWGQGTSVTVSSEQKLISEEDGSGIQNPEPAVYQLKDPRSQDSTLCLFTDFDSQINVPKTMESGTFITDKTVLDMKAMDSKSNGAIAWSNQTSFTCQDIFKETNATYPSSDVPCDATLTEKSFETDMNLNFQNLSVMGLRILLLKVAGFNLLMTLRLWSS
notes: Polyprotein PRT 3188
B6: CD8SP-FMC63-vL-V5-[hTCRb-WT]-F-P2A-SP-FMC63-vH-Myc-[hTCRa-WT]-F-F2A-PAC (080815-F02)[SEQ ID NO:922] (other)
TCR beta: B3 TCR beta
TCR alpha: EVKLQESGPGLVAPSQSLSVTCTVSGVSLPDYGVSWIRQPPRKGLEWLGVIWGSETTYYNSALKSRLTIIKDNSKSQVFLKMNSLQTDDTAIYYCAKHYYYGGSYAMDYWGQGTSVTVSSEQKLISEEDGSGIQNPDPAVYQLRDSKSSDKSVCLFTDFDSQTNVSQSKDSDVYITDKTVLDMRSMDFKSNSAVAWSNKSDFACANAFNNSIIPEDTFFPSPESSCDVKLVEKSFETDTNLNFQNLSVIGFRILLLKVAGFNLLMTLRLWSS
notes: SIR with wild-type TCR constant chains; Polyprotein PRT 3157
B7: CD8SP-FMC63-vL-V5-[TCRb-S57C-opt1]-F-P2A-SP-FMC63-vH-Myc-[TCRa-T48C-opt1]-F-F2A-PAC (050515-L05)[SEQ ID NO:900] (other)
TCR beta: B3 TCR beta with S181C
TCR alpha: EVKLQESGPGLVAPSQSLSVTCTVSGVSLPDYGVSWIRQPPRKGLEWLGVIWGSETTYYNSALKSRLTIIKDNSKSQVFLKMNSLQTDDTAIYYCAKHYYYGGSYAMDYWGQGTSVTVSSEQKLISEEDGSGPDPAVYQLRDSKSSDKSVCLFTDFDSQTNVSQSKDSDVYITDKCVLDMRSMDFKSNSAVAWSNKSDFACANAFNNSIIPEDTFFPSPESSCDVKLVEKSFETDTNLNFQNLSVIGFRILLLKVAGFNLLMTLRLWSS
notes: Polyprotein PRT 3135
B8: CD8SP-FMC63-vL-V5-[hTCRb-KACIAH]-F-P2A-SP-FMC63-vH-Myc-[hTCRa-CSDVP]-F-F2A-PAC (081415-D06)[SEQ ID NO:992] (other)
TCR beta: B3 TCR beta with E142K, S146A, S181C, F257I, E260A, Q263H
TCR alpha: B6 TCR alpha with T179C, P222S, E223D, S224V, S225P
notes: Polyprotein PRT 3227; also called FMC63-SIR-D06
B9: CD8SP-CD19Bu12-vL-V5-[TCRb-S57C-opt1]-F-P2A-SP-CD19Bu12-vH-Myc-[TCRa-T48C-opt1]-F-F2A-PAC (070215-M03)[SEQ ID NO:1021] (other)
TCR beta: EIVLTQSPATLSLSPGERATLSCSASSSVSYMHWYQQKPGQAPRLLIYDTSKLASGIPARFSGSGSGTDFTLTISSLEPEDVAVYYCFQGSVYPFTFGQGTKLEIKRGKPIPNPLLGLDSTGSGEDLKNVFPPEVAVFEPSEAEISHTQKATLVCLATGFYPDHVELSWWVNGKEVHSGVCTDPQPLKEQPALNDSRYCLSSRLRVSATFWQNPRNHFRCQVQFYGLSENDEWTQDRAKPVTQIVSAEAWGRADCGFTSESYQQGVLSATILYEILLGKATLYAVLVSALVLMAMVKRKDSRG
TCR alpha: QVQLQESGPGLVKPSQTLSLTCTVSGGSISTSGMGVGWIRQHPGKGLEWIGHIWWDDDKRYNPALKSRVTISVDTSKNQFSLKLSSVTAADTAVYYCARMELWSYYFDYWGQGTLVTVSSEQKLISEEDGSGPDPAVYQLRDSKSSDKSVCLFTDFDSQTNVSQSKDSDVYITDKCVLDMRSMDFKSNSAVAWSNKSDFACANAFNNSIIPEDTFFPSPESSCDVKLVEKSFETDTNLNFQNLSVIGFRILLLKVAGFNLLMTLRLWSS
notes: Polyprotein PRT 3256

The target in one assay is T1, CD19-ECD-GGSG-NLuc-AcV5. Put plainly: NLuc binding assay, SIR on Jurkat-NFAT-Luc cells; parental Jurkats 1515.
As to B1, the NLuc value was 6360.

Take B2: the NLuc value came to 2180.

Take B3: the NLuc value came out at 693.

The next assay concerns the target T1, CD19-ECD-GGSG-NLuc-AcV5. Put plainly: NLuc binding assay, SIR on Jurkat-NFAT-Luc cells; parental Jurkats 996.
On to B4, for which the NLuc value came out at 102000.

On to B5, for which the NLuc value was determined as 12100.

In the case of B6, the NLuc value was 3610.

Turning to B7, the NLuc value stood at 37200.

As for B8, the NLuc value was found to be 503000.

As for B9, the NLuc value amounted to 129000.

For the next assay, the target named is T1, CD19-ECD-GGSG-NLuc-AcV5. Put plainly: NLuc binding assay, SIR on primary human T cells.
B5: the “mean NLuc value” was determined as 5360.

On to B6, for which the “mean NLuc value” was 1190.

Consider B7, for which the “mean NLuc value” was 19200.

With B8, the “mean NLuc value” came out at 107000.

B9: the “mean NLuc value” is 39600.
